Data reported in ChEMBL document CHEMBL2021790, “Pyridone methylsulfone hydroxamate LpxC inhibitors for the treatment of serious gram-negative infections” (J Med Chem, 2012).

Molecular target: T1, UDP-3-O-acyl-N-acetylglucosamine deacetylase (Pseudomonas aeruginosa (strain ATCC 15692 / PAO1 / 1C / PRS 101 / LMG12228), UniProt P47205)
T1 sequence (P47205 whole entry): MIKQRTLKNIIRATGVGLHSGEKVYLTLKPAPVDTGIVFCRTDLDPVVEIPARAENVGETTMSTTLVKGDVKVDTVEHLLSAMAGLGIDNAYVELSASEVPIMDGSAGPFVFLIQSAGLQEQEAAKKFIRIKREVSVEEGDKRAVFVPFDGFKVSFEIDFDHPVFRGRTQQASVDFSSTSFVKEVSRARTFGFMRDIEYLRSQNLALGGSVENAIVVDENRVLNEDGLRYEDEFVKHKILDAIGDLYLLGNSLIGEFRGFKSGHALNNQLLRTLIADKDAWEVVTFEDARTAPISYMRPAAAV
Test: Inhibition of Pseudomonas aeruginosa LpxC expressed in Escherichia coli using UDP-3-O-N-acetylglucosamine substrate measured after 30 mins by mass spectrometry

Compound: COc1ccc(-c2ccn(CC[C@](C)(C(=O)NO)S(C)(=O)=O)c(=O)c2)cc1
- pIC50: 8.59

pIC50: −log10 of the molar value.
